These are literature values, as cited in paper PMC7304070 (Journal of the American Chemical Society, 2020).

For the data set, the system named is cells. Conditions: linear peptide; cited from earlier work.

For the substance “pDI: linear peptide LTFEHYWAQLTS binding MDM2”, the activity in cells entry is “negligible activity in cells”.
